According to patent publication US12031152B2, “Nutrient media for the production of slaughter-free meat” (Upside Foods, Inc., priority 2020, dated 2024):

Legend:
[1] = ADI of trace elements and other components
From the text: Several trace elements are essential to cell metabolism and growth. […] As a novel alternative to formulating trace elements directly, the present disclosure discloses the identification and testing of food-safe complexes that innately contain trace elements.

[2] = cited from earlier work

Row | Substance | ADI [1] [mg/kg bw-day] | Safe Reference Level for Human Dietary Intake: Nitrate ADI [2]
1 | HYPOXANTHINE-NA | 0.3 | –
2 | SODIUM METAVANADATE | 0.274 | –
3 | FERRIC NITRATE-9H2O | – | Nitrate ADI = 3.7 mg/kg bw/day
